Earlier results in patent publication US20080051332A1, “METHOD OF MODULATING HEMATOPOIETIC STEM CELLS AND TREATING HEMATOLOGIC DISEASES USING INTRANASAL PARATHYROID HORMONE” (Nastech Pharmaceutical Company Inc., priority 2005, published 2008).

Details: intraduodenally to rats with 1% (w/v) polycarbophil dispersion vs aqueous solution without polymer; cited from earlier work

In the case of “9-desglycinamide, 8-arginine vasopressin [DGAVP]”, the increase of bioavailability is given as 3-5 fold.
